## Yeast mating assay 1: variants of the scFv Ab-14

The measurements come from Engelhart et al. 2022 (doi:10.1038/s41597-022-01779-4) through the FLAb antibody collection.

Binding partner: SARS-CoV-2 spike HR2 peptide, sequence PDVDLGDISGINAS.

Parent: Ab-14, a human scFv built as VH, a 15-residue (Gly4Ser)3 linker, VL. Only the CDRs of the light chain vary.
VH: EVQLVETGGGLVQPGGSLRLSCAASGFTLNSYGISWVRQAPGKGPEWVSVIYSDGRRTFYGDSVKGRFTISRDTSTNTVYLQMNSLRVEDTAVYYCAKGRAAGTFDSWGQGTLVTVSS
VL: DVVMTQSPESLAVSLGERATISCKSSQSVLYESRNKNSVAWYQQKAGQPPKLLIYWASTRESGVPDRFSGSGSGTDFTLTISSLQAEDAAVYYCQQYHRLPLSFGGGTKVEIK

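In library AAYL50, one, two or three CDR residues were substituted; doubles and triples were drawn at random. The scFvs were displayed on barcoded MATa yeast, the peptide on MATalpha yeast. Binding brings cells together so that they mate, and sequencing counts the barcode pairs among the diploids. The ratio of observed to expected reads was calibrated, replicate by replicate, on BCL2-family standards whose Kd was known from biolayer interferometry. There are three technical replicates.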

Each variant is given by its three light chain CDRs, as the data file delimits them; those of the parent are KSSQSVLYESRNKNSVA, WASTRES, QQYHRLPLS. This list gathers variants with a substitution at T59 (VL, numbered from residue 1). Scale: log10 of Kd in nM, estimated from mating counts; low values are strong binders. The mean shown is taken over the replicates in which the pair was detected. "no signal" marks a missing value. The strain was present, yet no cells mated with the target were sequenced in any replicate, which points to weak or no binding. For reference, the parent read 0.65 as the reference entry and 1.68 as a member of this library. Empty control strains, which show no peptide, gave a signal in 18% of pairings with library AAYL50; the median was 4.19 and 95% of these signals were weaker than 2.99. No background was subtracted.

The variant KSSQSVLYESRNKNSLA, SASSRES, QQYHRLPLS showed 0.61 (3 of 3 replicates).
The variant KSSQSVLYESRNKNSVA, WAKYRES, QQYMRLPLS showed 1.07 (3 of 3 replicates).
The variant KSSQSVLYESRNKNSVA, WASMRES, QQYHNLPLS showed 1.08 (3 of 3 replicates).
The variant KSSQSVLYESRNKNSVE, WASDRES, QQYHRLCLS showed 4.91 (1 of 3 replicates).
The variant NSSQSVLYESRKKNSVA, WASRRES, QQYHRLPLS showed 1.63 (3 of 3 replicates).
The variant KSSQSVLYESRNKNSVA, WASDFPS, QQYHRLPLS showed 4.08 (1 of 3 replicates).
The variant KSSQSVLYESRNKNSVA, WYSERES, QQYHRLPLS showed no signal (0 of 3 replicates).
The variant KSSQSVLYESRNKNSVP, WASKMES, QQYHRLPLS showed 4.25 (1 of 3 replicates).
The variant FSSQSVLYESRNKNSVA, WKSQRES, QQYHRLPLS showed 2.81 (1 of 3 replicates).
The variant KSSQSVLYESRNKNSVA, WASKRES, QQYYDLPLS showed 4.05 (3 of 3 replicates).
The variant KSSMSVLYESRNKNSVA, WASRRES, QQYHRCPLS showed 4.70 (2 of 3 replicates).
The variant KSYQSVLYESRNKNSVA, WASGRES, QQYHRLYLS showed no signal (0 of 3 replicates).
The variant KSSQSMLYESRNKNSVA, WAYGRES, QQYHRLPLS showed no signal (0 of 3 replicates).
The variant KPSQSVLYESRNKNSVA, WASWRES, QQYHRLPLS showed 2.81 (1 of 3 replicates).
The variant KSSISVLYESRNKVSVA, WASRRES, QQYHRLPLS showed no signal (0 of 3 replicates).
The variant KSSFSVLYESRNKNSVA, WACHRES, QQYHRLPLS showed 4.05 (3 of 3 replicates).
The variant KSSQHVLYESRNKNSVA, WASERES, QQYHRLPLS showed 1.88 (3 of 3 replicates).
The variant KSSQSVLYESRNGNSVA, WASVRES, QQYHRLPLS showed 0.45 (3 of 3 replicates).
The variant KSSQSYLYESRTKNSVA, WASHRES, QQYHRLPLS showed 1.74 (3 of 3 replicates).
The variant KCSQSVLYESRNKNSVA, WASMRES, QQYIRLPLS showed 1.15 (3 of 3 replicates).
The variant KSRQSVLYESRNKNSVA, WASLRDS, QQYHRLPLS showed 3.09 (1 of 3 replicates).
The variant KSSQSKLYESRNKNSVW, WASCRES, QQYHRLPLS showed 4.92 (2 of 3 replicates).
The variant VSSQSVLYESRNKNSVA, WASKRES, QQRHRLPLS showed no signal (0 of 3 replicates).
The variant KSSQSVLYETRNHNSVA, WASLRES, QQYHRLPLS showed 1.29 (3 of 3 replicates).
The variant KSSQSVLYESRNQNSVA, WASPRES, QQYHRLPLS showed 5.42 (1 of 3 replicates).
The variant KSSQSALYEKRNKNSVA, WASWRES, QQYHRLPLS showed 3.12 (2 of 3 replicates).
The variant KSSQSVVYESRNKNSVA, WASQRES, QQYHRLCLS showed no signal (0 of 3 replicates).
The variant KSSCSVLYESRNKNSVA, WASYRES, QQYHRLPNS showed 1.62 (3 of 3 replicates).
The variant KSSQSVLYESRNKNSVA, WVSFREE, QQYHRLPLS showed 2.39 (3 of 3 replicates).
The variant KSSQSVLYESRNKNSVA, WASAREQ, QTYHRLPLS showed no signal (0 of 3 replicates).
The variant KSSQQVLYESRNKNSVA, WASVRES, QQYHRTPLS showed 2.35 (3 of 3 replicates).
The variant KSSQSVLDESRNKNSVA, WASQRES, QQYHMLPLS showed 0.58 (3 of 3 replicates).
The variant KSPQSVLYESRNKNSVA, WASDRES, QQYHRLPLS showed 2.91 (3 of 3 replicates).
The variant KWSQSVLYESRNKNSVW, WASSRES, QQYHRLPLS showed no signal (0 of 3 replicates).
The variant KSSQSVLYESRLKNSVA, WAQFRES, QQYHRLPLS showed 2.67 (3 of 3 replicates).
The variant KSSQSVAQESRNKNSVA, WASLRES, QQYHRLPLS showed 1.01 (3 of 3 replicates).
The variant KSSQSVLYESRNKNSNA, WASSRES, RQYHRLPLS showed no signal (0 of 3 replicates).

The closing 6 entries, repeated:

The variant KSSQSVLDESRNKNSVA, WASQRES, QQYHMLPLS gave 0.58 (3 of 3 replicates).
The variant KSPQSVLYESRNKNSVA, WASDRES, QQYHRLPLS gave 2.91 (3 of 3 replicates).
The variant KWSQSVLYESRNKNSVW, WASSRES, QQYHRLPLS gave no signal (0 of 3 replicates).
The variant KSSQSVLYESRLKNSVA, WAQFRES, QQYHRLPLS gave 2.67 (3 of 3 replicates).
The variant KSSQSVAQESRNKNSVA, WASLRES, QQYHRLPLS gave 1.01 (3 of 3 replicates).
The variant KSSQSVLYESRNKNSNA, WASSRES, RQYHRLPLS gave no signal (0 of 3 replicates).